From US9096541B2

Chains of the proteins cited; added tags and fusions are not shown. Residues count along the entry.
UniProt Q9Y5Z0, 63-473 limits assumed: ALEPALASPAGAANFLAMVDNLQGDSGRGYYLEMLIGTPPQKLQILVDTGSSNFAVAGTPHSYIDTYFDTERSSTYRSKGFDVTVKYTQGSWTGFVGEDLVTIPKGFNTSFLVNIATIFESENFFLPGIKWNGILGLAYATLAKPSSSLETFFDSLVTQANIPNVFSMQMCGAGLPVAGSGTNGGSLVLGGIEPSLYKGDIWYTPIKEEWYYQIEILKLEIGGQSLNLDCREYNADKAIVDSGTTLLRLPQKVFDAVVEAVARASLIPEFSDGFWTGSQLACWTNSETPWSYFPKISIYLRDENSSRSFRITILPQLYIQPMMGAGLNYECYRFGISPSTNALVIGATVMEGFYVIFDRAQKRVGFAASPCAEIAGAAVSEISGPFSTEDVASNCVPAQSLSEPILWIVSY

Experiments:
[1] = test system: ob/ob mice; test: Reduction of plasma glucose in ob/ob mice; conditions: 30 mg/kg daily intraperitoneal; for plasma glucose level compared with control group: 3 days after first injection
[2] = target: memapsin 1 (Homo sapiens (Human), UniProt Q9Y5Z0); test: Inhibition of recombinant memapsin 1 ectodomain, fluorescent substrate
[3] = test system: memapsin 1 processing of Tmem27 in MIN6 cells; test: Inhibition of Tmem27 processing in MIN6 cells (Western blot of C-terminal fragment); conditions: DAPT present

Row | SMILES | time glucose suppression lasted after inhibitor injection stopped [1] | plasma glucose level compared with control group [1] | other results
1 | CC(C)CC(NC(=O)c1cc(C(=O)NC(C)c2ccccc2)cc(N(C)S(C)(=O)=O)c1)[C@@H](O)C[C@@H](C)C(=O)N[C@H](C(=O)NC(C)C)C(C)C (some centres unmarked) | over 21 days | dropped and remained below that of the control group | 
2 | CCC[C@H](O)[C@H](NC[C@H](Cc1ccccc1)NC(=O)c1cc2c3c(c1)c(CC)cn3CC(C)(C)S(=O)(=O)N2C)C(=O)NC(C)C |  |  | pKi ([2]; read-out: M1 inhibition Ki or IC50, cells not marked (IC50)): 7.52
3 | COc1ccc([C@H](NC[C@H](Cc2ccccc2)NC(=O)c2cc(C(=O)N[C@H](C)c3ccccc3)cc(N(C)S(C)(=O)=O)c2)[C@H](C)O)cc1 |  |  | pIC50 ([2]; read-out: M1 inhibition Ki or IC50, cells marked (IC50)): 6.15
4 | CC(C)CNC(=O)[C@@H](NC[C@@H](O)[C@H](Cc1ccccc1)NC(=O)c1cc(C(=O)N[C@H](C)c2ccccc2)cc(N(C)S(C)(=O)=O)c1)[C@H](C)O | 3 days | dropped below that of the control group | 22-kDa C-terminal fragment of Tmem27 remaining ([3]; 0.4 μM inhibitor): less than 5%; 22-kDa C-terminal fragment of Tmem27 ([3]; 0.9 μM inhibitor): completely abolished

pIC50, pKi: −log10 of the molar value.
